Literature values in patent publication US6713048B2, “Δ9 tetrahydrocannabinol (Δ9 THC) solution metered dose inhalers and methods of use” (Virginia Commonwealth University, priority 1998, dated 2004).

By UniProt entry, the sequences of proteins in these tests, tags left out.
UniProt P47746, whole entry: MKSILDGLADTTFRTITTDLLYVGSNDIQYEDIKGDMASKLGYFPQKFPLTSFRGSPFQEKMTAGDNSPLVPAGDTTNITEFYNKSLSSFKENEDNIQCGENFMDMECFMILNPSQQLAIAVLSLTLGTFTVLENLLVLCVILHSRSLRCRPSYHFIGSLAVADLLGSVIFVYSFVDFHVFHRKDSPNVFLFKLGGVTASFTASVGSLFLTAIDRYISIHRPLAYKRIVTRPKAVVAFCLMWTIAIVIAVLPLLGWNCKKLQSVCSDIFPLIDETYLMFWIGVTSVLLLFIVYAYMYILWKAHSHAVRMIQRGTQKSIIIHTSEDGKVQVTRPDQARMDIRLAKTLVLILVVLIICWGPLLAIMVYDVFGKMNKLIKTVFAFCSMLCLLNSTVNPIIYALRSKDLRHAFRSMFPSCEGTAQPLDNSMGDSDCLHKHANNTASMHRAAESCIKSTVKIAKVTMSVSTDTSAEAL

Tests used:
[1] = target: brain cannabinoid receptor (Mus musculus, UniProt P47746); settings: injection of WIN 55,212-2 (Rinaldi-Carmona et al., 1994); cited from earlier work
cannabinoid receptor = cannabinoid receptor (Mus musculus, UniProt P47746); settings: injection of Δ^9-THC (Compton et al., 1996); cited from earlier work

## Cc1c(C(=O)NN2CCCCC2)nn(-c2ccc(Cl)cc2Cl)c1-c1ccc(Cl)cc1 [SR 141716A]
[1]
  ED50 in antagonizing antinociceptive effects: 1.6 mg/kg
Cannabinoid receptor
  ED50 in antagonizing antinociceptive effects: 0.4 mg/kg
